Earlier results as cited in patent publication US20060167044A1, “Piperidine derivatives and their use as anti-inflammatory agents” (priority 2004, published 2006).

Chains of the proteins cited; added tags and fusions are not shown. Lines headed by an entry give the natural chain unless they say otherwise; changes in a name come on top.
UniProt P32246: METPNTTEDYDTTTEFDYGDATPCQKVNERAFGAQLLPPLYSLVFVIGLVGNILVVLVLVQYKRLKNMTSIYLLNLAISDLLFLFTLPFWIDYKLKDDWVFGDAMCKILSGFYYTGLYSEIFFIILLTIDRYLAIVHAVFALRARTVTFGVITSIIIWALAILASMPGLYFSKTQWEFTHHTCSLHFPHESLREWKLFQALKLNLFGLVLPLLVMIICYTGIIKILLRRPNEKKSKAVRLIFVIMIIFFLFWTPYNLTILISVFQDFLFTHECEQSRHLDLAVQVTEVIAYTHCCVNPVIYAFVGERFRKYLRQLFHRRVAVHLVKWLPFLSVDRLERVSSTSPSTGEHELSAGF

Tests used:
[1] = target: CCR1 compared with 28 different GPCR's (Homo sapiens, UniProt P32246)
[2] = tested on: EAE model of multiple sclerosis; settings: rat, in vivo
[3] = tested on: heterotopic heart transplant rejection; settings: rat, in vivo
[4] = target: T1, CCR1 (Homo sapiens, UniProt P32246)
[5] = tested on: UUO kidneys; settings: mouse, in vivo
[6] = tested on: monocytes
[7] = target: T1, CCR1; remark: listed apart in the source

C[C@@H]1CN(Cc2ccc(F)cc2)CCN1C(=O)COc1ccc(Cl)cc1NC(N)=O [BX 471]
selectivity for CCR1 compared with 28 different GPCR's [1]: greater than 10,000 fold | clinical score [2]: decreased | efficacy in heart transplant rejection [3]: efficacious | extent of monocytic graft infiltration [3]: significantly reduced | prolonging transplantation rejection, combination versus either agent alone [3]: much more efficacious | functional antagonism (inhibition of CCR1-mediated Ca2+ mobilization, extracellular acidification rate, CD11b expression, leukocyte migration) [4]: potent functional antagonist | CCR1 and CCR5 mRNA levels [5]: marked reduction | markers of renal fibrosis (interstitial fibroblasts, interstitial volume, mRNA and protein expression for collagen 1) [5]: significantly reduced | reduction of interstitial macrophage and lymphocyte infiltrate [5]: 40-60% | firm adhesion of monocytes triggered by CCL5 (RANTES) [6]: dose-responsively blocking | displacement of the CCR1 ligands CCL3, CCL5 (RANTES) and CCL7 (MCP-3) [7]: high affinity
